## AlphaSeq binding of Ab-14 heavy chain variants to a spike HR2 peptide

Values reported by Li et al. 2023, doi:10.1038/s41467-023-39022-2 (FLAb copy).

Binding partner: SARS-CoV-2 spike HR2 peptide, sequence PDVDLGDISGINAS.

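Phage display of a naive human antibody library on the peptide gave the parent. These sequences belong to a second round, designed from the earlier measurements on random variants of the parent. Several design methods are mixed in this list. AlphaSeq pools MATa yeast showing the antibodies with MATalpha yeast showing the peptide. After mating in shaken culture at 30 °C for 16 h, diploids were selected and their barcode pairs sequenced. The ratio of observed to expected reads was calibrated, replicate by replicate, on BCL2-family standards whose Kd was known from biolayer interferometry. The assay was run in six technical replicates.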

Parent: Ab-14, a human scFv built as VH, three GGGGS repeats, VL. Only the CDRs of the heavy chain vary.
VH: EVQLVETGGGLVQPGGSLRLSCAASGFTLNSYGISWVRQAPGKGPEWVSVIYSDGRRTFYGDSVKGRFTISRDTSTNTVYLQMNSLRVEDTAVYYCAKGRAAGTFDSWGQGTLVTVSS
VL: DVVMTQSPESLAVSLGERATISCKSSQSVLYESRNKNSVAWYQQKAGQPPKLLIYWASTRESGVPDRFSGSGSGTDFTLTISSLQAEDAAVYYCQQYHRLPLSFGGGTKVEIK

Each variant is given by its three heavy chain CDRs, as the data file delimits them; those of the parent are GFTLNSYGIS, VIYSDGRRTFYGDSVK, GRAAGTFDS.
This list holds designs with more than six substitutions.
Kd is apparent (estimated from mating counts) and averaged on the log scale over replicates with a signal. Smaller is tighter.
A pair that was not seen in any replicate is written "nd"; this usually means weak binding, but a binder can also be missed.
Order: sorted from the lowest average up, undetected variants last.
The authors' rule: three or more of the six replicates give a measured affinity, fewer mean a poor binder.

Variant GFDLDEYGIS | VIYADGKRTAYADSVK | GQTAGTFDV gave 65 pM (6 of 6 replicates).
Variant GFDLNEYGIS | VIYADGQRTAYVDSVK | GQNAGTFDV gave 86 pM (6 of 6 replicates).
Variant GFDLNEYGIS | VIYADGKRTVYADSVK | GNQAGTFDV gave 100 pM (6 of 6 replicates).
Variant GFDLNEYGIS | VIYADGRRTAYIDSVK | GHTAGTFDS gave 130 pM (6 of 6 replicates).
Variant GEDLMEYGIS | VIYADGERKSYVNSVK | GGVSVTFSS gave 150 pM (1 of 6 replicates).
Variant GFTINEYGIS | VIYADGKRTFYIDSVK | GSEAGTFDS gave 160 pM (6 of 6 replicates).
Variant GFDLNEYGIS | VIYADGQRTVYADSVK | GNVAGTFDV gave 220 pM (6 of 6 replicates).
Variant GFDLNEYGIS | VIYADGMRTYYADSVK | GNVAGTFDI gave 280 pM (6 of 6 replicates).
Variant GFNLDEYGIS | VIYADGRRTFYADSVK | GKHAGTFDT gave 300 pM (6 of 6 replicates).
Variant GFDLNEYGIS | VIYADGQRTAYADDVK | GNTAGTFDV gave 380 pM (6 of 6 replicates).
Variant GFDLNEYGIS | VIYADGRRTFYADSVK | GNAAGTFIV gave 380 pM (6 of 6 replicates).
Variant GFNLDEYGIS | VIYADGRRTFYADNVK | GQVAGTFDV gave 400 pM (6 of 6 replicates).
Variant GFDLDEYGIS | VIYADGKRTAYTDSVK | GTNAGTFDV gave 420 pM (6 of 6 replicates).
Variant GFDLNEYGIS | VIYADGVRTFYADSVK | GNAAGTFDV gave 440 pM (6 of 6 replicates).
Variant GFDLDEYGIS | VIYADGMRTFYADSVK | GSNAGTFDQ gave 450 pM (6 of 6 replicates).
Variant GFDLNEYGIS | VIYADGMRTAYTDSVK | GNVAGTFDL gave 470 pM (6 of 6 replicates).
Variant GFDLNEYGIS | VIYADGVRTFYSDSVK | GENAGTFDI gave 490 pM (6 of 6 replicates).
Variant GADINEYGIS | VIYADGNRIAYQDQVK | GTLAGSFDI gave 510 pM (6 of 6 replicates).
Variant GFDLNEYGIS | VIYADGMRTAYSDDVK | GNVAGTFDI gave 530 pM (6 of 6 replicates).
Variant GFDLDEYGIS | VIYADGRRTFYADSVK | GQVAGTFDS gave 530 pM (6 of 6 replicates).
Variant GFDLEDYGIS | VIYADGKRTAYADSVK | GNEAGTFDV gave 530 pM (6 of 6 replicates).
Variant GFDLNEYGIS | VIYADGMRTSYADSVK | GETAGTFDV gave 560 pM (6 of 6 replicates).
Variant GFDLNEYGIS | VIYADGMRTFYADSVK | GQIAGTFDQ gave 660 pM (6 of 6 replicates).
Variant GFDLNEYGIS | VIYADGMRTAYSDSVK | GQVAGTFDQ gave 1.1 nM (6 of 6 replicates).
Variant GFDLEDYGIS | VIYADGRRTFYADSVK | GNVAGTFIM gave 1.6 nM (6 of 6 replicates).
Variant GFDLNEYGIS | VIYADGRRTFYTDSVK | GTFAGTFDQ gave 2.1 nM (6 of 6 replicates).
Variant GFDLNEYGIS | VIYADGRRTAYADDVK | GSNAGTFDV gave 4.0 nM (6 of 6 replicates).
Variant GFDLNEYGIS | VIYADGRRTFYADSVK | GQNAGTFDL gave 4.2 nM (6 of 6 replicates).
Variant GFDLNEYGIS | VIYADGRRTFYADSVK | GNQAGTFIF gave 15 nM (2 of 6 replicates).
Variant GFSLDEFGIS | VIYADGQRSAYSENVK | GQHGGMTVS gave 30 nM (4 of 6 replicates).
Variant GFDLDQYGIS | VIYADGRRTAYDNDVK | GQVAGIFLD gave 41 nM (4 of 6 replicates).
Variant GFNLDEYGIS | VIYADGQRTAYADSVK | GEVAGTFDL gave 70 nM (3 of 6 replicates).
Variant GFSLDEYGIS | VIYADGVRQFYCDDVK | GGIAGTFLY gave 74 nM (6 of 6 replicates).
Variant GFDLEKYGIS | VIYADGRRSVYADNVK | GMLGATNGY gave nd (0 of 6 replicates).
Variant GFNLDEYGIS | VIYADGQRVAYFNNVK | GKNGAFFSN gave nd (0 of 6 replicates).
Variant GKNLDEYGIS | VIYADGMRSMYADSVK | GGIDGWTFI gave nd (0 of 6 replicates).
Variant GFDLDEYGVS | VIYADGIRTKYADSVK | GEVGVFYFQ gave nd (0 of 6 replicates).
Variant GKALDEYGIS | VIYADGKRTFYSNTVK | GEDGVFYDQ gave nd (0 of 6 replicates).
Variant GFSIDEYGIS | VIYADGLRQHYANAVK | GEGAGTFTT gave nd (0 of 6 replicates).
Variant GFDLDQYGIS | VIYADGKRVAYTDDVK | GVTGGMALV gave nd (0 of 6 replicates).
Variant GFTLDSYGIS | VIYSDGRRTWYGDSTK | GRAAGNALL gave nd (0 of 6 replicates).
Variant GKDLEEYGIS | VIYADGMRTAYKESVK | GQVAGIGKF gave nd (0 of 6 replicates).
Variant GFTLDEYGIS | VIYADGQRTAYTDDVK | GQYGGIGTI gave nd (0 of 6 replicates).
Variant GFQLDEFGIS | VIYADGKRSSYVDDVK | GETTGGFKV gave nd (0 of 6 replicates).
Variant GFGLDEYGIS | VIYADGSRTEYVQSVK | GDTSVIKFV gave nd (0 of 6 replicates).

Again, the first 6 entries without any signal:

{"CDR-H1": "GFDLEKYGIS", "CDR-H2": "VIYADGRRSVYADNVK", "CDR-H3": "GMLGATNGY", "Kd": "nd", "seen in": "0 of 6"}
{"CDR-H1": "GFNLDEYGIS", "CDR-H2": "VIYADGQRVAYFNNVK", "CDR-H3": "GKNGAFFSN", "Kd": "nd", "seen in": "0 of 6"}
{"CDR-H1": "GKNLDEYGIS", "CDR-H2": "VIYADGMRSMYADSVK", "CDR-H3": "GGIDGWTFI", "Kd": "nd", "seen in": "0 of 6"}
{"CDR-H1": "GFDLDEYGVS", "CDR-H2": "VIYADGIRTKYADSVK", "CDR-H3": "GEVGVFYFQ", "Kd": "nd", "seen in": "0 of 6"}
{"CDR-H1": "GKALDEYGIS", "CDR-H2": "VIYADGKRTFYSNTVK", "CDR-H3": "GEDGVFYDQ", "Kd": "nd", "seen in": "0 of 6"}
{"CDR-H1": "GFSIDEYGIS", "CDR-H2": "VIYADGLRQHYANAVK", "CDR-H3": "GEGAGTFTT", "Kd": "nd", "seen in": "0 of 6"}

A sequence measured in both rounds can read differently, since the two assays cover different ranges.
Background: pairings of all heavy chain designs with three empty control strains gave a value in 1% of cases (median 120 nM, 5th percentile 7.0 nM). Values in that range, when seen in few replicates, are hard to tell from nonspecific mating.